Experimental data reported in PMC5499624 (Biomolecules & Therapeutics, 2017).
Counter-ions that a name gives are not always drawn.

Columns and labels:
[1] = test system: [^3H]imperatorin uptake by TR-BBB cells; experiment: Inhibition of [^3H]imperatorin uptake by TR-BBB cells by selected compounds; type: in vitro ADME, rat; details: compound 1 mM (L-Carnitine: concentration cell empty), 37°C, 5 min
[2] = test system: [^3H]imperatorin brain uptake; experiment: Brain uptake index; type: in vivo, rat; details: inhibitor 10 mM, 15 s after injection

C[C@]12CC[C@@H]3c4ccc(OS(=O)(=O)O)cc4CC[C@H]3[C@@H]1CCC2=O [E1S, estrone-3-sulfate]
Relative Uptake (% of Control) of [^3H]imperatorin [1]: 103 ± 6 % of Control

COc1ccc(CN(CCN(C)C)c2ccccn2)cc1 [Pyrilamine, pyrilamine maleate salt]
BUI of [^3H]imperatorin in presence of inhibitor [2]: 29.1 ± 1.7 %
